# Measured values published in patent publication US20130122525A1.
# Molecular target: streptavidin (Invitrogen), bound to a PEG/biotin-PEG passivated surface (UniProt P22629)
# Test: dissociation of surface-immobilized, biotinylated LeuT from the streptavidin-coated imaging plane (TIRF smFRET imaging; data not shown)
substance,measurement,value
"Cy3/Cy5-labeled LeuT (H7C/R86C) with a 15-amino-acid C-terminal biotinylation domain, biotinylated (other; other documents disagree on this pair)",koff,< 6.94e-05 s⁻¹
